From PubChem BioAssay (NCI)
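Dose response: 5 concentrations. Exposure: 48 h. Format: 96-well plates. Endpoint: linear interpolation; highest concentration if not reached. Abbreviation: GI50, concentration required for 50% inhibition of growth. At the TGI there is no net growth.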

How the values were obtained:
Test in all cases: inhibition of tumour cell growth, NCI panel, 48 h
MALME-3M melanoma = system: MALME-3M melanoma
SK-MEL-28 melanoma = system: SK-MEL-28 melanoma
786-0 renal = system: 786-0 renal
EKVX NSCLC = system: EKVX NSCLC
SNB-75 CNS = system: SNB-75 CNS
NCI-H460 lung = system: NCI-H460 lung
HS 578T breast = system: HS 578T breast
SF-268 CNS = system: SF-268 CNS
SK-MEL-2 melanoma = system: SK-MEL-2 melanoma
OVCAR-3 ovarian = system: OVCAR-3 ovarian
SR leukemia = system: SR leukemia
MOLT-4 leukemia = system: MOLT-4 leukemia
SF-539 CNS = system: SF-539 CNS
HCT-116 colon = system: HCT-116 colon
K-562 leukemia = system: K-562 leukemia
SNB-19 CNS = system: SNB-19 CNS
SK-MEL-5 melanoma = system: SK-MEL-5 melanoma
UO-31 renal = system: UO-31 renal
MCF7 breast = system: MCF7 breast
CCRF-CEM leukemia = system: CCRF-CEM leukemia
NCI-H23 lung = system: NCI-H23 lung
UACC-257 melanoma = system: UACC-257 melanoma
CAKI-1 renal = system: CAKI-1 renal
ACHN renal = system: ACHN renal
HL-60(TB) leukemia = system: HL-60(TB) leukemia
TK-10 renal = system: TK-10 renal
OVCAR-8 ovarian = system: OVCAR-8 ovarian
NCI-H226 lung = system: NCI-H226 lung
SK-OV-3 ovarian = system: SK-OV-3 ovarian
SW-620 colon = system: SW-620 colon
SF-295 CNS = system: SF-295 CNS
BT-549 breast = system: BT-549 breast
NCI-H522 lung = system: NCI-H522 lung
MDA-MB-435 = system: MDA-MB-435
MDA-MB-231 breast = system: MDA-MB-231 breast
KM12 colon = system: KM12 colon
RPMI-8226 leukemia = system: RPMI-8226 leukemia
IGROV1 ovarian = system: IGROV1 ovarian
OVCAR-4 ovarian = system: OVCAR-4 ovarian
OVCAR-5 ovarian = system: OVCAR-5 ovarian
PC-3 prostate = system: PC-3 prostate
COLO 205 colon = system: COLO 205 colon
HCT-15 colon = system: HCT-15 colon
RXF 393 renal = system: RXF 393 renal
NCI/ADR-RES ovarian = system: NCI/ADR-RES ovarian
HCC-2998 colon = system: HCC-2998 colon
U251 CNS = system: U251 CNS
UACC-62 melanoma = system: UACC-62 melanoma
HOP-92 NSCLC = system: HOP-92 NSCLC
A549 NSCLC = system: A549 NSCLC
M14 melanoma = system: M14 melanoma
NCI-H322M lung = system: NCI-H322M lung
HOP-62 NSCLC = system: HOP-62 NSCLC
HT29 colon = system: HT29 colon

O=[N+]([O-])C(F)(COC(=S)OCC(F)([N+](=O)[O-])[N+](=O)[O-])[N+](=O)[O-]
GI50 (MALME-3M melanoma): 8.34 µM
TGI (MALME-3M melanoma): 22 µM
GI50 (SK-MEL-28 melanoma): 17.2 µM
TGI (SK-MEL-28 melanoma): 41.3 µM
GI50 (786-0 renal): 15.4 µM
TGI (786-0 renal): 30 µM
GI50 (EKVX NSCLC): 17.2 µM
TGI (EKVX NSCLC): 31.5 µM
TGI (SNB-75 CNS): 25 µM
GI50 (NCI-H460 lung): 13.1 µM
TGI (NCI-H460 lung): 28.6 µM
GI50 (HS 578T breast): 15.2 µM
TGI (HS 578T breast): 33.2 µM
GI50 (SF-268 CNS): 16.2 µM
TGI (SF-268 CNS): 31 µM
GI50 (SK-MEL-2 melanoma): 15.9 µM
TGI (SK-MEL-2 melanoma): 30.9 µM
GI50 (OVCAR-3 ovarian): 15.3 µM
TGI (OVCAR-3 ovarian): 28.9 µM
GI50 (SR leukemia): 2.82 µM
TGI (SR leukemia): 11.5 µM
GI50 (MOLT-4 leukemia): 6.59 µM
TGI (MOLT-4 leukemia): 26.5 µM
GI50 (SF-539 CNS): 15.7 µM
TGI (SF-539 CNS): 30.2 µM
GI50 (HCT-116 colon): 6.62 µM
TGI (HCT-116 colon): 19.6 µM
GI50 (K-562 leukemia): 4.96 µM
TGI (K-562 leukemia): > 100 µM
GI50 (SNB-19 CNS): 19.8 µM
TGI (SNB-19 CNS): 50 µM
GI50 (SK-MEL-5 melanoma): 6.49 µM
TGI (SK-MEL-5 melanoma): 19.7 µM
GI50 (UO-31 renal): 14.6 µM
TGI (UO-31 renal): 27.8 µM
GI50 (MCF7 breast): 12.1 µM
TGI (MCF7 breast): 30.4 µM
GI50 (CCRF-CEM leukemia): 4 µM
TGI (CCRF-CEM leukemia): 22.5 µM
GI50 (NCI-H23 lung): 16.8 µM
TGI (NCI-H23 lung): 33.8 µM
GI50 (UACC-257 melanoma): 16 µM
TGI (UACC-257 melanoma): 34.9 µM
GI50 (CAKI-1 renal): 4.57 µM
TGI (CAKI-1 renal): 15.2 µM
GI50 (ACHN renal): 11.8 µM
TGI (ACHN renal): 25.1 µM
GI50 (HL-60(TB) leukemia): 2.73 µM
TGI (HL-60(TB) leukemia): 12.1 µM
GI50 (TK-10 renal): 14.3 µM
TGI (TK-10 renal): 28.9 µM
GI50 (OVCAR-8 ovarian): 15.3 µM
TGI (OVCAR-8 ovarian): 32 µM
GI50 (NCI-H226 lung): 17.8 µM
TGI (NCI-H226 lung): 34.5 µM
GI50 (SK-OV-3 ovarian): 29.1 µM
TGI (SK-OV-3 ovarian): 63.2 µM
GI50 (SW-620 colon): 5.6 µM
TGI (SW-620 colon): 28.2 µM
GI50 (SF-295 CNS): 22.3 µM
TGI (SF-295 CNS): 44.6 µM
GI50 (BT-549 breast): 19.4 µM
TGI (BT-549 breast): 33.6 µM
GI50 (NCI-H522 lung): 3.12 µM
TGI (NCI-H522 lung): 10.6 µM
GI50 (MDA-MB-435): 4.94 µM
TGI (MDA-MB-435): 21.9 µM
GI50 (MDA-MB-231 breast): 14.3 µM
TGI (MDA-MB-231 breast): 27.4 µM
GI50 (KM12 colon): 14.8 µM
TGI (KM12 colon): 29.2 µM
GI50 (RPMI-8226 leukemia): 2.42 µM
TGI (RPMI-8226 leukemia): 34.1 µM
GI50 (IGROV1 ovarian): 13 µM
TGI (IGROV1 ovarian): 29.2 µM
GI50 (OVCAR-4 ovarian): 12.1 µM
TGI (OVCAR-4 ovarian): 24.4 µM
GI50 (OVCAR-5 ovarian): 20.1 µM
TGI (OVCAR-5 ovarian): 36.7 µM
GI50 (PC-3 prostate): 13.3 µM
TGI (PC-3 prostate): 26.4 µM
GI50 (COLO 205 colon): 4.71 µM
TGI (COLO 205 colon): 16 µM
GI50 (HCT-15 colon): 11.1 µM
TGI (HCT-15 colon): 26.6 µM
GI50 (RXF 393 renal): 12.8 µM
TGI (RXF 393 renal): 25.7 µM
GI50 (NCI/ADR-RES ovarian): 16.9 µM
TGI (NCI/ADR-RES ovarian): 37.6 µM
GI50 (HCC-2998 colon): 15 µM
TGI (HCC-2998 colon): 28.2 µM
GI50 (U251 CNS): 16.8 µM
TGI (U251 CNS): 34.9 µM
GI50 (UACC-62 melanoma): 13.2 µM
TGI (UACC-62 melanoma): 27.1 µM
GI50 (HOP-92 NSCLC): 12.6 µM
TGI (HOP-92 NSCLC): 29.2 µM
GI50 (A549 NSCLC): 15 µM
TGI (A549 NSCLC): 33.9 µM
GI50 (M14 melanoma): 12.2 µM
TGI (M14 melanoma): 27 µM
GI50 (NCI-H322M lung): 21.1 µM
TGI (NCI-H322M lung): 54.5 µM
GI50 (HOP-62 NSCLC): 16 µM
TGI (HOP-62 NSCLC): 31 µM
GI50 (HT29 colon): 15.1 µM
TGI (HT29 colon): 47.2 µM
